# Experimental data published in ChEMBL document CHEMBL1136809, “Synthesis and structure-affinity relationships of novel N-(1-ethyl-4-methylhexahydro-1,4-diazepin-6-yl)pyridine-3-carboxamides with potent serotonin 5-HT3 and dopamine D2 receptor antagonistic activity” (J Med Chem, 2003).
# Sequences of proteins named here, by UniProt entry; tags and fusion partners are left off. A change or cut given only in a name is not applied to a line headed by its entry.
# UniProt P35563, whole entry: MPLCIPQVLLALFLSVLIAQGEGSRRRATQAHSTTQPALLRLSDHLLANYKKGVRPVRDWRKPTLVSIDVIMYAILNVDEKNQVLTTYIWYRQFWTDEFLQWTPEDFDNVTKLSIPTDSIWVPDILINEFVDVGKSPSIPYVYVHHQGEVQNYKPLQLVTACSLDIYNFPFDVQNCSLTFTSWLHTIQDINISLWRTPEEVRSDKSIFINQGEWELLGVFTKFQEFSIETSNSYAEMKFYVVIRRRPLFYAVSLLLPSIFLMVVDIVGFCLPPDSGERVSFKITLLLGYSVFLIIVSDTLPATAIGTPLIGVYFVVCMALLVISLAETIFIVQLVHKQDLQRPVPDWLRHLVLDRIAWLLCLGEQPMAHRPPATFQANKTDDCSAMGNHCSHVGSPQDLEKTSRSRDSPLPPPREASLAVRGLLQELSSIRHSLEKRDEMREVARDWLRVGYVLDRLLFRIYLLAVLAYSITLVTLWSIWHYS
# UniProt Q9JJ16: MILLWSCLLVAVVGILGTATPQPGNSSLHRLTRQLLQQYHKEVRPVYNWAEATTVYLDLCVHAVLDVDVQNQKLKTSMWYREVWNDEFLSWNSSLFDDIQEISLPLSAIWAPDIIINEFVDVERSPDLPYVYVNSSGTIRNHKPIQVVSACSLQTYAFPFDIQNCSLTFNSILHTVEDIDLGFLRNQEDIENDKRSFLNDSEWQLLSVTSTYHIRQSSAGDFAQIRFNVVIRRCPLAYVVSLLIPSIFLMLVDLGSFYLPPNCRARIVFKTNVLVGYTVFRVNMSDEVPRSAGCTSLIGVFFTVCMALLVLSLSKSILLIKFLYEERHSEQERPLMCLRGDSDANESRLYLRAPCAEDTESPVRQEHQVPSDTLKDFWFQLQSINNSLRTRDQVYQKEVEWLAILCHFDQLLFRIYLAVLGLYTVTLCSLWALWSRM
# UniProt P61169, whole entry: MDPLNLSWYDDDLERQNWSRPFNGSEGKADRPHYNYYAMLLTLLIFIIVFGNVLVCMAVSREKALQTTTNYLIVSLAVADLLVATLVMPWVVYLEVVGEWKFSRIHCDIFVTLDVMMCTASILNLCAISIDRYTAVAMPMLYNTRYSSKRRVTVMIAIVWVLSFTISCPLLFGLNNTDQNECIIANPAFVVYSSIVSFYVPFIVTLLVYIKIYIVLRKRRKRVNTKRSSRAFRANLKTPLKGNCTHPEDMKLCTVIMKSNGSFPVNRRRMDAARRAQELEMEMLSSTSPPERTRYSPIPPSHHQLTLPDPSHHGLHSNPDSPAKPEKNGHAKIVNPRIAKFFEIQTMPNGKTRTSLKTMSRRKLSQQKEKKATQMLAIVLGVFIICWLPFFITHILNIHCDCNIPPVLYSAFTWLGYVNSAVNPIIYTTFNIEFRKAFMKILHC
# Tests used:
# [1] = target: Serotonin 3 (5-HT3) receptor (Rattus norvegicus, UniProt P35563+Q9JJ16); assay: Inhibition of [3H]GR-65630 binding to rat cortical membrane serotonin 5-hydroxytryptamine 3 receptor
# D(2) dopamine receptor [2] = target: T1, D(2) dopamine receptor (Rattus norvegicus, UniProt P61169); assay: Affinity towards Dopamine receptor D2 in rat striatum using [3H]spiperone as radioligand; type: tissue-based
# D(2) dopamine receptor [3] = target: T1, D(2) dopamine receptor; assay: Concentration of compound required to inhibit the binding of radioligand [3H]spiperone to Dopamine receptor D2 in rat brain synaptic membrane; type: cell membranes
Compound,Ki [1],Ki (D(2) dopamine receptor [2]),IC50 (D(2) dopamine receptor [3])
COc1cc(N)c(Cl)cc1C(=O)NC1CCN(CCCOc2ccc(F)cc2)CC1OC (stereo not drawn) [CISAPRIDE],94.7 nM,,
CCN(CC)CCNC(=O)c1cc(Cl)c(N)cc1OC [METOCLOPRAMIDE],,303 nM,444 nM
